# scFv variants of Ab-14 (light chain) against a SARS-CoV-2 spike peptide

From the AlphaSeq antibody data of Li et al. 2023 (doi:10.1038/s41467-023-39022-2), copy in the FLAb collection.

All variants were tested on one target, the spike HR2 peptide PDVDLGDISGINAS (SARS-CoV-2).

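The parent was found by panning a naive human phage display library on the peptide. Designed CDR sequences, proposed from the first random library and measured here. Group labels follow the data file (Ctrl: baseline library sampled from a position-specific scoring matrix, with some repeated check sequences; En: ensemble of fine-tuned language models; GP: Gaussian process model; HC: hill climbing; Gen: genetic algorithm; Gibbs: Gibbs sampling; a sequence that several methods proposed may carry one label only). AlphaSeq pools MATa yeast showing the antibodies with MATalpha yeast showing the peptide. Mating (16 h, 30 °C) was followed by selection of diploids and sequencing of their barcodes. Each replicate has its own calibration line, from reference interactions of the BCL2 family. The assay was run in six technical replicates.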

Each scFv is VH, a (GGGGS)3 linker, VL, as in the parent Ab-14, and differs from it in the CDRs of the light chain only.
VH: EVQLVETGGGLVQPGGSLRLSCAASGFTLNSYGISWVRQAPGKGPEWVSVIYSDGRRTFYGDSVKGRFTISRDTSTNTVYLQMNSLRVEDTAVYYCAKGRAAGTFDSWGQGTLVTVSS
VL: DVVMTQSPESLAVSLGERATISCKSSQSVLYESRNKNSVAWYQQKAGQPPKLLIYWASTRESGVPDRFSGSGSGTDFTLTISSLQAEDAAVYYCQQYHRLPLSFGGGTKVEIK

Each variant is given by its three light chain CDRs, as the data file delimits them; those of the parent are KSSQSVLYESRNKNSVA, WASTRES, QQYHRLPLS. The read-out is the apparent dissociation constant on a log10 scale (nM): the lower, the stronger. Replicates are averaged; those with no signal do not enter the mean. A pair that was not seen in that replicate is written "nd"; this usually means weak binding, but a binder can also be missed.

| CDR-L1 | CDR-L2 | CDR-L3 | group | replicates, log10 nM | mean, log10 nM |
|---|---|---|---|---|---|
| KVDQSVLLKSRNKNAVA | QASTRES | QDYHRLPLS | GP_Gibbs | 1.05 / 0.61 / 0.69 / 0.72 / 0.36 / 1.06 | 0.75 |
| KCSQSDLYESRNKNSVA | DASTRES | QQYHRLPLS | GP_HC | 0.84 / 0.24 / 0.76 / 0.13 / 0.39 / 0.33 | 0.45 |
| KSSQSELGESRNKNSVA | DASTRES | QQYHRLPLS | GP_HC | 0.20 / -0.04 / 0.22 / 0.01 / 0.23 / 0.23 | 0.14 |
| KVSQSVLFESRNKNSVA | DASFRES | QQYHRLPLS | GP_HC | -0.17 / -0.31 / -0.21 / -0.42 / -0.20 / -0.10 | -0.23 |
| KISQSVLYEARNKNSVA | HASTRES | QQYHRLPNC | Ctrl | 1.17 / 1.34 / 0.94 / 0.93 / 0.74 / 0.76 | 0.98 |
| MFSQGVMVGWLARNSVA | NSSTRES | QQYHRLPLS | En_HC | 0.66 / 0.37 / 0.25 / 0.37 / 0.72 / 0.86 | 0.54 |
| HLSQSELYESRNKNSVA | NASTRMS | QQYHRLPLS | GP_Gen | -0.14 / -0.11 / -0.39 / -0.48 / -0.34 / -0.16 | -0.27 |
| KSSMSHLYESRNKNSVA | GASTRES | QQYHRLPLS | GP_HC | 0.57 / 0.86 / 1.16 / 0.86 / 0.88 / 0.92 | 0.87 |
| MFPQEVMYEQHFRNNVA | QTSTREP | QQYDMLPLS | En_HC | 1.20 / 0.84 / 0.78 / 0.66 / 0.68 / 0.76 | 0.82 |
| KIYELGKGNIKTNNNIA | QTDIRML | QSYNRLPLS | En_Gibbs | 0.92 / 0.60 / 0.30 / 0.46 / 0.64 / 0.72 | 0.61 |
| CSSKSVLYESRNKNSVA | SASTRES | QQYHVLPLS | Ctrl | nd / 1.47 / 2.52 / 1.20 / 1.63 / 1.22 | 1.61 |
| KLQMSHQGNPKDHYAIA | EGISATT | QQYARLPLM | En_Gibbs | nd / 2.22 / 2.55 / 2.48 / 1.83 / 2.14 | 2.24 |
| KMSQSVLYESRNKNSVA | HASERES | QQYHRLPLS | Ctrl | -0.43 / -0.37 / -0.49 / -0.92 / -0.33 / -0.24 | -0.46 |
| HINGLEDQFPDSWNAIA | QETLRNL | QQYFSLPLS | En_Gibbs | 1.21 / 2.07 / 1.85 / 2.84 / 3.17 / 2.14 | 2.21 |
| KLYDMSALTVTNIRNVA | DNDTREQ | QQYHRLPLS | En_Gen | 1.46 / 0.83 / 0.82 / 0.88 / 1.13 / 1.15 | 1.05 |
| KVSFSYLLESRNKNSVA | EAQTRES | QQYHRLPLS | GP_HC | 0.63 / 0.54 / 0.36 / 0.19 / 0.48 / 0.53 | 0.45 |
| KSSQSVLYERRDKNSVA | WASTRVE | QQYHRIPLS | Ctrl | nd / 1.54 / nd / nd / nd / 2.24 | 1.89 |
| KFQQSVMMGDRNKNSVA | KASTRLS | QQYHRLPLS | GP_Gibbs | 1.56 / 1.33 / 0.83 / 0.92 / 1.85 / 2.09 | 1.43 |
| KLQQSVLYESRNKNSVA | EASTRCS | QQYHRLPLS | GP_Gen | 0.78 / 0.64 / 0.45 / 0.41 / 0.67 / 0.60 | 0.59 |
| MISQLYNMGQFAINSVA | QGSERNN | QQYDRLPLM | En_Gen | 1.04 / 1.01 / 1.04 / 1.17 / 0.71 / 1.22 | 1.03 |
| KSDQSVLYESVNKGSVA | WASTREL | QQYDRWPLQ | Ctrl | nd / nd / nd / nd / 1.90 / nd | 1.90 |
| MISQLYNMGQFAINSVA | QASERSE | QQYDRLPLM | En_Gen | 1.64 / 1.34 / 1.38 / 0.81 / 1.29 / 2.18 | 1.44 |
| KSSQSSLYESRNKNSVA | WASTRGS | QQYHRLPLS | Ctrl | 1.37 / 2.32 / 1.51 / nd / nd / 2.55 | 1.94 |

Continued, with the values leading:

| replicates, log10 nM | mean, log10 nM | CDR-L1 | CDR-L2 | CDR-L3 | group |
|---|---|---|---|---|---|
| 1.67 / 0.82 / 0.57 / 0.93 / 0.63 / 0.89 | 0.92 | MISQIYNMGQFAINSVA | QASTRNQ | QQYDRLPLM | En_Gen |
| 0.25 / 0.18 / -0.22 / 0.02 / -0.08 / 0.07 | 0.04 | KFEQSDLYESRNKNSVA | EASTRES | QQYHRLPLS | GP_Gen |
| 1.32 / 1.96 / 1.23 / 1.18 / 1.57 / 1.66 | 1.49 | TISQMTSLFSQSINNVA | EVSTREP | QQYDRLPLM | En_Gen |
| 1.09 / 0.89 / 1.45 / 0.34 / 0.06 / 0.84 | 0.78 | ASSQGWLYESRNKNSVA | GASTRED | QQYHRLPLS | GP_HC |
| 0.81 / nd / nd / nd / nd / nd | 0.81 | KSSQSVKYESVNKNSVA | HASTRES | QQTMRWPLS | Ctrl |
| 0.34 / 0.24 / 0.13 / 0.36 / 0.12 / 0.26 | 0.24 | KFSQSVLYESRNKNSVA | HASTRSS | QQYMRLPFS | Ctrl |
| -0.18 / 0.26 / -0.38 / -0.54 / 0.07 / 0.08 | -0.12 | KLSQSELYESRNKNSVA | NASTRES | QDYHRLPLS | GP_Gen |
| 0.38 / 0.38 / 0.08 / 0.13 / -0.21 / 0.43 | 0.20 | RLLYQDLAQTGKLQSVA | DATITQQ | QQYHQLPLM | En_Gibbs |
| 0.90 / 1.08 / 0.81 / 1.00 / 0.61 / 1.44 | 0.97 | IMSDSQERDASRLNNIA | DDYTRAM | QQYARLPLS | En_Gibbs |
| 2.76 / 0.74 / nd / 1.10 / 0.96 / 1.26 | 1.36 | KIGATLNTLYEKANNVA | DLVEREN | QQYHRLPLS | En_Gen |
| -0.23 / -0.22 / -0.35 / -0.35 / -0.37 / -0.19 | -0.29 | KFSQSDLYEDRNKNSVA | NASQRES | QQYHRLPLS | GP_Gen |
| 1.28 / 1.40 / 1.65 / 1.70 / 1.44 / 1.50 | 1.49 | ALTNEFESVSHHKNNIA | HTSQRCM | QQYATLPLS | En_Gibbs |
| 1.00 / 0.57 / 0.53 / 0.42 / 0.26 / 0.53 | 0.55 | KCSQSVDYEDRNMNNVA | NASTRES | QDYHRLPLS | GP_Gibbs |
| 0.94 / 0.27 / 0.21 / 0.16 / 1.00 / 0.81 | 0.56 | SFSQSVLYESVHKNNVA | QTSTRES | QQYDHLPLS | En_HC |
| 3.69 / 2.09 / 1.26 / 1.84 / 1.95 / 2.97 | 2.30 | KSSQSVDYESRNKNSVA | WASTRES | QQYHRLPLS | Ctrl |
| -0.07 / -0.34 / -0.51 / -0.44 / -0.06 / -0.07 | -0.25 | KLSQSVLYESRNKNSVA | GASTRES | QQYHRLPLI | GP_Gen |
| 0.95 / 0.75 / 1.46 / 1.26 / 1.36 / 1.12 | 1.15 | KSSQSVLYESRNKNSVA | WASTREH | QQYHRLPLS | Ctrl |
| 0.78 / 0.53 / 0.55 / 0.31 / 0.58 / 1.26 | 0.67 | TLSQAMDMTSRNVNSVA | DLTTRGN | QQYHRLPLS | En_HC |
| 0.04 / 0.07 / -0.16 / -0.40 / 0.35 / 0.24 | 0.02 | KSSPSVLYESHNKNSVA | NASTRMD | QQYHRLPLS | GP_HC |
| -0.21 / -0.32 / -0.38 / -0.48 / -0.42 / -0.11 | -0.32 | KLDQSGLYESRNKNSVA | GASTRES | QQYHRLPLS | GP_HC |
| nd / nd / nd / nd / 1.72 / nd | 1.72 | KVSQSVLLEVRNKNSVA | WASTRES | QQYHRLPLS | Ctrl |
| nd / nd / 2.22 / 1.49 / 1.76 / 2.07 | 1.88 | MLSEVLHMLGAKKNSIA | DLVMRAN | QQYHRLPLM | En_Gen |
| 0.20 / 0.09 / 0.21 / -0.05 / 0.18 / 0.40 | 0.17 | KLPQSWWYESRNKNSVA | NASTRES | QQYHRLPLS | GP_Gen |

Top 7 of the variants detected in all replicates, tightest first:

{"CDR-L1": "KMSQSVLYESRNKNSVA", "CDR-L2": "HASERES", "CDR-L3": "QQYHRLPLS", "group": "Ctrl", "replicates, log10 nM": "-0.43 / -0.37 / -0.49 / -0.92 / -0.33 / -0.24", "mean, log10 nM": "-0.46"}
{"CDR-L1": "KLDQSGLYESRNKNSVA", "CDR-L2": "GASTRES", "CDR-L3": "QQYHRLPLS", "group": "GP_HC", "replicates, log10 nM": "-0.21 / -0.32 / -0.38 / -0.48 / -0.42 / -0.11", "mean, log10 nM": "-0.32"}
{"CDR-L1": "KFSQSDLYEDRNKNSVA", "CDR-L2": "NASQRES", "CDR-L3": "QQYHRLPLS", "group": "GP_Gen", "replicates, log10 nM": "-0.23 / -0.22 / -0.35 / -0.35 / -0.37 / -0.19", "mean, log10 nM": "-0.29"}
{"CDR-L1": "HLSQSELYESRNKNSVA", "CDR-L2": "NASTRMS", "CDR-L3": "QQYHRLPLS", "group": "GP_Gen", "replicates, log10 nM": "-0.14 / -0.11 / -0.39 / -0.48 / -0.34 / -0.16", "mean, log10 nM": "-0.27"}
{"CDR-L1": "KLSQSVLYESRNKNSVA", "CDR-L2": "GASTRES", "CDR-L3": "QQYHRLPLI", "group": "GP_Gen", "replicates, log10 nM": "-0.07 / -0.34 / -0.51 / -0.44 / -0.06 / -0.07", "mean, log10 nM": "-0.25"}
{"CDR-L1": "KVSQSVLFESRNKNSVA", "CDR-L2": "DASFRES", "CDR-L3": "QQYHRLPLS", "group": "GP_HC", "replicates, log10 nM": "-0.17 / -0.31 / -0.21 / -0.42 / -0.20 / -0.10", "mean, log10 nM": "-0.23"}
{"CDR-L1": "KLSQSELYESRNKNSVA", "CDR-L2": "NASTRES", "CDR-L3": "QDYHRLPLS", "group": "GP_Gen", "replicates, log10 nM": "-0.18 / 0.26 / -0.38 / -0.54 / 0.07 / 0.08", "mean, log10 nM": "-0.12"}

A sequence measured in both rounds can read differently, since the two assays cover different ranges. Background: pairings of all light chain designs with three empty control strains gave a value in 4% of cases (median 2.64, 5th percentile 1.59). Values in that range, when seen in few replicates, are hard to tell from nonspecific mating. In the paper, a design with two or fewer of six values counts as a poor binder. Of ten entries with the parent sequence, four were seen in most replicates (averages 0.34 to 2.37), three in one and three in none, so single entries are noisy.